Assay [1] concerns the target human HSP90 alpha protein (N-terminal, amino acids 2-236) (Homo sapiens (Human), UniProt P07900). Nature of the assay: Measurement of HSP90-binding activity (AlphaScreen competitive assay, biotin-labeled geldanamycin). The note with it: inhibition of biotin-labeled geldanamycin binding to purified HSP90; read-out: HSP-binding activity IC50. The procedure: First, a solution of purified HSP90 was prepared as follows. […] The pET-HSP90N was introduced into Escherichia coli cells (BL21 (DE3), Stratagene Inc.), and then the Escherichia coli cells were cultured in the presence of 0.5 mM isopropyl-beta-D-thiogalactopyranoside (Sigma-Aldrich Corp.) at 37° C. for 4 hours. The Escherichia coli cells were collected, suspended in a lysis buffer (50 mM Tris-HCl (pH 7.5), 200 mM NaCl), and sonicated. The sonicated cell solution was centrifuged (40,000×g, 20 minutes) to obtain supernatant as a crude extract. The crude extract was fractionated by Ni Sepharose High Performance (GE Healthcare Japan Corporation) chromatography and HiLoad 26/60 Superdex 75 pg (GE Healthcare Japan Corporation), and the fraction in which HSP90 protein was concentrated was prepared so as to be a 50 mM Tris-HCl (pH 7.5)/20% glycerol solution as a purified HSP90 solution. […]
The HSP90-binding activity was measured by an AlphaScreen competitive assay system. […] After reaction in a dark place at room temperature for 1 hour, the fluorescence intensity in each well was measured with a multilabel plate reader, EnVision (Perkin Elmer, Inc.). The inhibition rate (%) of biotin-labeled geldanamycin binding by a compound of the present invention was determined by the following equation using the fluorescence signal of a test substance-free group (control) as a control. […]

In a further assay the test system is SK-BR-3 cells. The assay is described as follows: Measurement of cell growth inhibition (crystal violet staining). The note with it: Homo sapiens, 72 hours culture with test substance. It counts as cell-based. The procedure: Cell growth was measured by a crystal violet staining method. […] The cells were cultured in a 5% CO2 incubator at 37° C. for 24 hours, and then test substances were added to the plate, followed by culturing for further 72 hours. […] The plate was left to stand at room temperature for 20 minutes for staining the cells. The plate was washed with water and dried, and 100 μL of a mixed solution of 0.05 M NaH2PO4 and ethanol (mixture in equal amounts) was added to each well. The absorbance at 540 nm was measured with a microplate reader (MTP-450, Corona Electric Co., Ltd.) as an index of the number of cells in each well. The inhibition rate (%) of cell growth by a compound of the present invention was determined by the following equation using the absorbance of a drug-untreated group (control) as a control. […] Inhibition rate (%)=(C−T)/C×100 T: absorbance in a well to which a test substance was added C: absorbance in a well to which no test substance was added

In the case of `Cc1cc(C(N)=O)ccc1-n1nc(C(C)C)c2c(-n3cnc(-c4cnn(C)c4)c3)cccc21` [Example 8, 4-(3-Isopropyl-4-(4-(1-methyl-1H-pyrazol-4-yl)-1H-imidazol-1-yl)-1H-indazol-1-yl)-3-methylbenzamide], the 50% inhibitory concentration (IC50) (in assay [1]; in the assay on SK-BR-3 cells) was 110 nM in each case.

(Values after patent US9120780B2, “Indole or indazole derivative or salt thereof” (TAIHO PHARMACEUTICAL CO., LTD., priority 2011, dated 2015).)
